Our source for the IC50 values is US9656978B2, “Acylpiperazines as inhibitors of transglutaminase and their use in medicine” (ASTON UNIVERSITY, priority 2012, dated 2017).

By UniProt entry, the sequences of proteins in these tests, tags left out. Residues count along the entry.
UniProt P21980, whole entry: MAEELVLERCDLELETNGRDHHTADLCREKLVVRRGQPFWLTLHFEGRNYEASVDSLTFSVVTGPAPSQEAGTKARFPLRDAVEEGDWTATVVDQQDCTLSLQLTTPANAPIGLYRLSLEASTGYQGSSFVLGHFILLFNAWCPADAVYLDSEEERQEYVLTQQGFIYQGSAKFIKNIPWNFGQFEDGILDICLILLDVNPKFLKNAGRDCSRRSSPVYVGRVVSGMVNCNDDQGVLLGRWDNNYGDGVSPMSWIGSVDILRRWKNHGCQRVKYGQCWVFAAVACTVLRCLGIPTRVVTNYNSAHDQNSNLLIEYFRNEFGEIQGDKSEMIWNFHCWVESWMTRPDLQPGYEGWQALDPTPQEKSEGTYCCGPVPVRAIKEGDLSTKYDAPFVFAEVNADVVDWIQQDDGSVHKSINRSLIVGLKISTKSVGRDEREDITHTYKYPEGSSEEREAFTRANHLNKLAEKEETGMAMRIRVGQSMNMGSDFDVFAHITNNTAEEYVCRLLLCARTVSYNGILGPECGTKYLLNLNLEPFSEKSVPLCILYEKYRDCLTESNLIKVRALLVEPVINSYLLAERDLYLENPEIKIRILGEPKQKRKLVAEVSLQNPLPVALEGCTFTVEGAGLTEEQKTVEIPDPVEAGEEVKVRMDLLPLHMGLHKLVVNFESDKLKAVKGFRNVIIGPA
UniProt P22735, whole entry: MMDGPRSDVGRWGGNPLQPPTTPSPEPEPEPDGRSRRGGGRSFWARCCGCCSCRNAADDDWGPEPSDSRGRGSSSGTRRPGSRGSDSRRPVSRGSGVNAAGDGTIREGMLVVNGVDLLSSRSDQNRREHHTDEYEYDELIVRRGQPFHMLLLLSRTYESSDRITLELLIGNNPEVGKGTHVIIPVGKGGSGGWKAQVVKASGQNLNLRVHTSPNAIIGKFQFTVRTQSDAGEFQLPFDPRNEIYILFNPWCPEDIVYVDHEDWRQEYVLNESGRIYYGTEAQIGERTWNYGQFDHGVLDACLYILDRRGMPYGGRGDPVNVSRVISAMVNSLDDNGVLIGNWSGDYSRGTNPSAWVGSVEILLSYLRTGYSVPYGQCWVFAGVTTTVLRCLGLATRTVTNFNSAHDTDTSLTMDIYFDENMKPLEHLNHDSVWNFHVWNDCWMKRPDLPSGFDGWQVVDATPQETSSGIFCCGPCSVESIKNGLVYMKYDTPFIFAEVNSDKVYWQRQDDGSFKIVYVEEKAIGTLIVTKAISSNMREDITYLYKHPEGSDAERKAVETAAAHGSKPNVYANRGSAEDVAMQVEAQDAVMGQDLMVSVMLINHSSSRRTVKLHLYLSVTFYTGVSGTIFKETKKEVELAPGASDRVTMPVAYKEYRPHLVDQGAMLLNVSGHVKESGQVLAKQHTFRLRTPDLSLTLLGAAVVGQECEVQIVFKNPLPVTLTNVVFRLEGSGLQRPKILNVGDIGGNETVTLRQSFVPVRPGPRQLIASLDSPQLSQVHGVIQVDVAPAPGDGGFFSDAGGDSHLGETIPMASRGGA
UniProt Q08188, whole entry: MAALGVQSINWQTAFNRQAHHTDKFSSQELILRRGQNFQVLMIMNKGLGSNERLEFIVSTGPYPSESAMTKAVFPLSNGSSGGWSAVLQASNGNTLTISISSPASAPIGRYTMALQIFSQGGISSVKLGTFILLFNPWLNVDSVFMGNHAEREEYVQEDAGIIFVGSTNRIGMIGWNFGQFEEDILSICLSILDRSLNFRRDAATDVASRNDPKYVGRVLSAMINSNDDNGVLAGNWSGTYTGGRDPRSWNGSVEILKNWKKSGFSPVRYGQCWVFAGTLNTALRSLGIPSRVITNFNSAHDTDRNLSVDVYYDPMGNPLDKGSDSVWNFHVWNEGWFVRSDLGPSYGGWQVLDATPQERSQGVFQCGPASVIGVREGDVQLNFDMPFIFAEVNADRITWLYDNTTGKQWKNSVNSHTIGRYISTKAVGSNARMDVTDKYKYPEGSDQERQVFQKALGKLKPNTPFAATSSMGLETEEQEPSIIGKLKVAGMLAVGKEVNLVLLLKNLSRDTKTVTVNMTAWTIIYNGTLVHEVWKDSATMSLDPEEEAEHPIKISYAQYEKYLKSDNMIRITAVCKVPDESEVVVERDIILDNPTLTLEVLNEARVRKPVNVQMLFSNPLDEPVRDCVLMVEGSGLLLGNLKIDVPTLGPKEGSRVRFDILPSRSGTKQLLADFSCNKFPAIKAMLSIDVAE
UniProt P00488, 39-732 limits assumed: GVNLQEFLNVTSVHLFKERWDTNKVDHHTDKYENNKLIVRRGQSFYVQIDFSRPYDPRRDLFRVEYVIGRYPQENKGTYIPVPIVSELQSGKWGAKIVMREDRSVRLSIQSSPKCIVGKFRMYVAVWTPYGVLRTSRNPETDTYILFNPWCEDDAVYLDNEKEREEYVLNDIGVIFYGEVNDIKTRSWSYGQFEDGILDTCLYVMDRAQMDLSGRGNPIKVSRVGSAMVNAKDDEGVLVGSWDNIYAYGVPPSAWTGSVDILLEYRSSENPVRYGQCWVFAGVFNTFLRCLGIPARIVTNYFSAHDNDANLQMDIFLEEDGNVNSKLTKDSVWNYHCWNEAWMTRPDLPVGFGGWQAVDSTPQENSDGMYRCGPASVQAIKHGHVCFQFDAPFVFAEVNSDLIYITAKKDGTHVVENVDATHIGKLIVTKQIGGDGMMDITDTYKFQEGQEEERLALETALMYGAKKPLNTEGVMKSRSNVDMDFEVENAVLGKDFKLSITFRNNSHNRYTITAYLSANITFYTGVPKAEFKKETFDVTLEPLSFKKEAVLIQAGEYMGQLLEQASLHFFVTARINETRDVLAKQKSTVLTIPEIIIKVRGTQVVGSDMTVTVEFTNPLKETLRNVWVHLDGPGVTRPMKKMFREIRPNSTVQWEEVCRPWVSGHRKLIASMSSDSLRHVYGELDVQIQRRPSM

Format in all cases: biochemical
For experiment [1], the target named is purified recombinant human TG2 (tissue transglutaminase) (Homo sapiens, UniProt P21980). Kind of experiment: TG2 transamidation activity, biotin X-cadaverine incorporation into N,N′-dimethylcasein (Example 2). As to conditions: read-out: IC50 for TG2, recombinant human TG2 400 ng/ml, 2 h at 37° C.
The target of the next experiment is transglutaminase 1 (Homo sapiens, UniProt P22735). As to the kind of experiment: TG-CovTest commercial microassay, transglutaminase 1. As to conditions: read-out: Estimated IC50 TG1, tested form: bromide.
In a further experiment the target is transglutaminase 3 (Homo sapiens, UniProt Q08188). As to the kind of experiment: TG-CovTest commercial microassay, transglutaminase 3. Conditions: read-out: Estimated IC50 TG3, tested form: bromide.
A further experiment has as its target Factor X111a (Homo sapiens, UniProt P00488). Kind of experiment: TG-CovTest commercial microassay, Factor X111a. Conditions: read-out: Estimated IC50 FXIII, tested form: bromide.

Broadly, the pIC50 is the negative decadic logarithm of the IC50, by convention in mol/L.

Each structure is given as a SMILES string. pIC50: −log10 of the molar value. Like-named read-outs stand apart in the source and are kept apart here. A value given as a limit tells only on which side of the number the result lay.

As for `C[C@H](NC(=O)C[S+](C)C)C(=O)N1CCN(C(=O)OCc2ccccc2)CC1`, in experiment [1] (tested form: bromide), the negative-log IC50 (pIC50) is 6.15.

As to `C[C@@H](NC(=O)C[S+](C)C)C(=O)N1CCN(C(=O)OCc2ccccc2)CC1`, the pIC50 in experiment [1] (tested form: bromide) was 5.17. Consider `C=CC(=O)N[C@H](C)C(=O)N1CCN(C(=O)OCc2ccccc2)CC1`, for which, in experiment [1], the pIC50 is less than 4.00.

Regarding `C=CC(=O)N[C@@H](C)C(=O)N1CCN(C(=O)OCc2ccccc2)CC1`, in experiment [1], the pIC50 was less than 4.00. In the case of `C=CC(=O)N[C@@H](Cc1ccccc1)C(=O)N1CCN(C(=O)OCc2ccccc2)CC1`, the pIC50 in experiment [1] is less than 4.00. In the case of `COC(=O)c1ccc(COC(=O)N2CCN(C(=O)CNC(=O)C[S+](C)C)CC2)cc1`, the pIC50 at transglutaminase 1 is less than 4.00; on transglutaminase 3, less than 4.00; on Factor X111a, 4.00.
